Data from patent publication US11952431B2, “Neutrophil-binding peptides” (YISSUM RESEARCH DEVELOPMENT COMPANY OF THE HEBREW …, priority 2020, dated 2024).
Like-named read-outs stand apart in the source and are kept apart here.

Tests used:
neutrophils = assay: Effect of KFP-tetramer / 16-KFP on neutrophil viability (microscopy, flow cytometry); type: cell-based, human
4T1 cells = conditions: LQI tetramer 31 nM, 310 nM and 3.1 μM; KFP tetramer 3.9 μM; 18 hours
[1] = 7.7 μM, mouse serum 37° C.

Substance | effect on neutrophil viability (neutrophils) | effect on cell viability (4T1 cells) | binding of all HDNs after serum incubation ([1]; 20 min) [%] | binding of all HDNs after serum incubation ([1]; 40 min) [%] | binding of all HDNs after serum incubation ([1]; 1 hour) [%]
(KFPDLDSRRLPHMSL (SEQ ID NO: 1) Doa-Doa-C)4-(Mpa)-4-Lys2-Lys-beta-Ala-Lys(Biotin)-beta-Ala-OH [KFP tetramer] | no effect | did not affect cell viability |  |  | 
(LQIQSWSSSP (SEQ ID NO: 9) Doa-Doa-C)4-(Mpa)-4-Lys2-Lys-beta-Ala-Lys(Biotin)-beta-Ala-OH [LQI tetramer] |  | did not affect cell viability | 95 | 95 | 85
